The values below come from patent publication US8377943B2, “2,4-diaminopyrimidine derivates as PTK2-inhibitors for the treatment of abnormal cell growth” (Boehringer Ingelheim International GmbH, priority 2008, dated 2013).

The chains behind the UniProt entries cited, without tags or fusion partners.
UniProt Q05397, whole entry: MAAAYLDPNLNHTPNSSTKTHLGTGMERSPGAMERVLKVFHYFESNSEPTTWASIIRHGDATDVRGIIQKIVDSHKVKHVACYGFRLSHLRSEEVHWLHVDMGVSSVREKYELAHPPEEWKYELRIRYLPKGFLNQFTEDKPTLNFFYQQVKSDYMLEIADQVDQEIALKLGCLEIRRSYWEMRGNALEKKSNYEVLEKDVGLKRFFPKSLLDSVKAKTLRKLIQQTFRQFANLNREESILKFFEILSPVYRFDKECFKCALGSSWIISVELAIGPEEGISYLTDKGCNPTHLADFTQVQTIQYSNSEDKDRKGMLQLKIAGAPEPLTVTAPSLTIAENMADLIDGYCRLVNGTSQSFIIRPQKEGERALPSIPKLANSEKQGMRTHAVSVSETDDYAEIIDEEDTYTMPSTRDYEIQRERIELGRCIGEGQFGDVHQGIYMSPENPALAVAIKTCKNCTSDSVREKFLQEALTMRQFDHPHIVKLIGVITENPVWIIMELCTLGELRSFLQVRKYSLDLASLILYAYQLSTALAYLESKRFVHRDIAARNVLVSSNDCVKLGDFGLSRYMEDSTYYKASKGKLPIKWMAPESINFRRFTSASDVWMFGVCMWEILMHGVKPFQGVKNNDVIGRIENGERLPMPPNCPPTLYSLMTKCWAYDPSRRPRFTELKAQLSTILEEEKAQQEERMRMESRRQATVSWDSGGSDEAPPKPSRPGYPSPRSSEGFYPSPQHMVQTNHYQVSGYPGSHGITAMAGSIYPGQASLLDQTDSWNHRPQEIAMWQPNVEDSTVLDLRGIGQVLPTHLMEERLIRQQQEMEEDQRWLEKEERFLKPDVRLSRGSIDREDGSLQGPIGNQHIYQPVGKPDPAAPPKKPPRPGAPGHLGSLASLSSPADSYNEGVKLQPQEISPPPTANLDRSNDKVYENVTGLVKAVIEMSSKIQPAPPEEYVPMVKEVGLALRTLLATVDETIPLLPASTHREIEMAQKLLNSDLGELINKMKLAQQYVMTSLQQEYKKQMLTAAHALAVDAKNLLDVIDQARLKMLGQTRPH

The target of experiment [1] is PTK2 (Homo sapiens, UniProt Q05397). Kind of experiment: PTK2 Enzyme Test (DELFIA assay, poly-Glu-Tyr substrate). As to conditions: read-out: PTK2 IC50; active PTK2 enzyme, 50 μM ATP in ATP Mix, 1 h pre-incubation.
The target in experiment [2] is PTK2-phosphorylation at tyrosine 397 (pY397) (Homo sapiens, UniProt Q05397). Kind of experiment: Phospho-PTK2 (pY397) Assay in PC-3 cells. As to conditions: read-out: PC3pPTK2 Y397 EC50; PC-3 prostate carcinoma cells, 2 h incubation.

As usually defined, the IC50 is the concentration needed to halve the response being measured. One may read the EC50 as the concentration at which the effect is half-maximal. In the case of `COc1cc(C(=O)N[C@H]2CCN(C)C[C@@H]2F)c(F)cc1Nc1ncc(C(F)(F)F)c(NCc2ccc(C)cc2N(C)S(C)(=O)=O)n1`, the IC50 in experiment [1] came to 3 nM. Moreover, the concentration for a half-maximal effect (EC50) in experiment [2] was determined as 0.32 nM.
